Molecular target: T1, Monoamine oxidase A (MAOA) (Homo sapiens, UniProt P21397)
T1 construct: the prostate cancer cell line LNCaP expressed a relatively high level of MAOA; endogenous in cells; host or cells: LNCaP cells (Cell Bank of the Chinese Academy of Sciences, Shanghai)
Experiment: MAOA inhibition activity assay in LNCaP cells (Cell MAOA Assay Kit)
Assay type: cell-based
Method: Because the prostate cancer cell line LNCaP expressed a relatively high level of MAOA [17, 40], we tested the inhibitory effect of compounds G10, G11, and G12 on MAOA using LNCaP cells (Table 2).
In a 10-mm dish, 6 × 10^5 LNCaP cells were plated in medium supplemented with 10% FBS. […] The reaction products were extracted and MAOA activities were measured as described in the introduction for the Cell MAOA Assay Kit (Shanghai Chengong Biotechnology, CHN, Lot No: 1-201838-10). The MAOA activity was assessed based on the substrate p-tyramine level after treatment with MAOB inhibitor pargyline.

Amino acid sequences for entries named in this document (tags omitted).
UniProt P21397, whole entry: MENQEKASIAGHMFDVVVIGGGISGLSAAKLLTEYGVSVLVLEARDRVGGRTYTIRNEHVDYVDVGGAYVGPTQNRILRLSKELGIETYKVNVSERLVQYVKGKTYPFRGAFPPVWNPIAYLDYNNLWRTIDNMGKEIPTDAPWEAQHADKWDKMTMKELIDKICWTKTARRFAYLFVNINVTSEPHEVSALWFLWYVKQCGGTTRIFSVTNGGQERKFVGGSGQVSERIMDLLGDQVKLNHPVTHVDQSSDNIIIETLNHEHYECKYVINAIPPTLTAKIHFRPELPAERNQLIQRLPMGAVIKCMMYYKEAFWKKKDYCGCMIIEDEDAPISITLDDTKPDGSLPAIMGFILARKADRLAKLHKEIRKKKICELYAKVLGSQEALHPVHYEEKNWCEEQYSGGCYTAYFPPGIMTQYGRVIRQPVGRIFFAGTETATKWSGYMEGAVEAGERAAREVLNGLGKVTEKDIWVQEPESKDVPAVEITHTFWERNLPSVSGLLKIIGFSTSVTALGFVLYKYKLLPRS

C#CCN(C)CCCOc1ccc(Cl)cc1Cl [Clorgyline, reference compound]
MAOA inhibitory activity (in words): most potent inhibitory effect
